{"source": "PubChem BioAssay AID488928", "about": "(Johns Hopkins Ion Channel Center, 2010)", "note": "The list shows a part of the results, in another mix than the full data. The source made the active and inactive calls.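 The calls were made as follows: active = drop in membrane potential signal beyond 5 SD of the control wells in both duplicate plates; inactive = the rest.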", "data": [{"system": "TRPC4 (transient receptor potential cation channel C4), mouse", "experiment": "TRPC4 inhibition by TRPC6 hit compounds, confirmation, selectivity assay for TRPC6 modulator project, cell-based, second screen, HEK293 TRPC4/mu-opioid, membrane potential dye (AID 488928);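 also: TRPC4 counter screen for TRPC6 hits run under conditions tuned for TRPC6 not TRPC4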", "settings": "membrane potential dye fluorescence, at 10 µM, stimulated with maximal-effect DAMGO; hits give high values", "values": [{"compound": "CCN(CC)CC(O)COC(=O)C(O)(c1ccccc1)C1CCCCC1", "note": "(stereo not drawn)", "inhibition": "active: 29.5%"}, {"compound": "CCN(CC)CCCOC(=O)C(O)(c1ccccc1)c1ccccc1", "inhibition": "inactive"}, {"compound": "O=C(OC1CN2CCC1CC2)C12CC3CC(CC(C3)C1)C2", "note": "(stereo not drawn)", "inhibition": "active: 42.5%"}]}]}
